Experiments:
[1] = target: T1, in vitro-translated, 35S-labelled full-length human ZHX1 (human, UniProt Q9UKY1 1-873, limits assumed, 35S-labelled); assay: GST pull-down, SDS/PAGE and autoradiography
T1 sequence (looked up): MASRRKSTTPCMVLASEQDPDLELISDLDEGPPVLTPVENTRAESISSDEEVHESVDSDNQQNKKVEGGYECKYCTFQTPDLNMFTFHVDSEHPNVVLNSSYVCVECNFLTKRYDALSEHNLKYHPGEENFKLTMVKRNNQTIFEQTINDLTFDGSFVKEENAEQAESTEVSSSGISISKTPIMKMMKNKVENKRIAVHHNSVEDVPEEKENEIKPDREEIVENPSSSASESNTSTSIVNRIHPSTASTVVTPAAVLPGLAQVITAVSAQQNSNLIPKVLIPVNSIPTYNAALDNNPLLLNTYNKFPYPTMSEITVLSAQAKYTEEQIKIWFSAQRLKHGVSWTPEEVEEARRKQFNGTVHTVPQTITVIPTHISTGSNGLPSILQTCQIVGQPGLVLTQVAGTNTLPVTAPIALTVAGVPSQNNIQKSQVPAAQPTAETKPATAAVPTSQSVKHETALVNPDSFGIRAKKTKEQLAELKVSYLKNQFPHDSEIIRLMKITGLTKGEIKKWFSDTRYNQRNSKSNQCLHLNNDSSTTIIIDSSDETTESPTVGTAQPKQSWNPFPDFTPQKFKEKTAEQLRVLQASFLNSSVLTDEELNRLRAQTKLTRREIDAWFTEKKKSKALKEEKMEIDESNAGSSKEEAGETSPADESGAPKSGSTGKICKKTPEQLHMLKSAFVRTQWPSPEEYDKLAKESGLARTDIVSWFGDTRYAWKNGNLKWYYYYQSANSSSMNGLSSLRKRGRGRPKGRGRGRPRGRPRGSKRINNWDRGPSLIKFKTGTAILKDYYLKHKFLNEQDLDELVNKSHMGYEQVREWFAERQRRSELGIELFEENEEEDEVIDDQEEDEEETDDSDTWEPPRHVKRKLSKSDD
Text: (§1) The beads were washed thoroughly and the bound protein was eluted and analysed by SDS/PAGE (10% gel). Interaction signals were detected by an autoradiography. Lanes 2, 4 and 7, 10% of the protein added to the reactions shown in the other lanes were loaded.
(§2) The preparation of the GST fusion protein, ³⁵S-labelling of in vitro-translated ZHX1 and pull-down analysis have been described previously (Yamada, K., Printz, R. L., Osawa, H., and Granner, D. K. (1999) Biochem. Biophys. Res. Commun. 261, 614-621; Hirano, S., Yamada, K., Kawata, H., Shou, Z., Mizutani, T., Yazawa, T., Kajitani, T., Sekiguchi, T., Yoshino, M., Shigematsu, Y, Mayumi, M., and Miyamoto, K. (2002) Gene 290, 107-114). […] Finally, the beads were resuspended in an equal volume of 2×SDS sample buffer and each supernatant was loaded on to an SDS/PAGE gel (10%), along with a prestained molecular-mass marker. The gel was dried and exposed to a FUJIX imaging plate (Kanagawa, Japan). Interaction signals were detected using the FUJIX BAS-2000 image analysing system. The relative purity and amounts of each fusion protein were determined by gel-staining with Coomassie Brilliant Blue R-250.
(§3) The inventors also carried out in vitro GST pull-down assays (reference example 6) to verify the specific interaction between ZHX1 and ZHX3.

[2] = target: T2, in vitro-translated, 35S-labelled full-length human ZHX3 (human, UniProt Q9H4I2 1-956, 35S-labelled); assay: GST pull-down, SDS/PAGE and autoradiography
T2 sequence: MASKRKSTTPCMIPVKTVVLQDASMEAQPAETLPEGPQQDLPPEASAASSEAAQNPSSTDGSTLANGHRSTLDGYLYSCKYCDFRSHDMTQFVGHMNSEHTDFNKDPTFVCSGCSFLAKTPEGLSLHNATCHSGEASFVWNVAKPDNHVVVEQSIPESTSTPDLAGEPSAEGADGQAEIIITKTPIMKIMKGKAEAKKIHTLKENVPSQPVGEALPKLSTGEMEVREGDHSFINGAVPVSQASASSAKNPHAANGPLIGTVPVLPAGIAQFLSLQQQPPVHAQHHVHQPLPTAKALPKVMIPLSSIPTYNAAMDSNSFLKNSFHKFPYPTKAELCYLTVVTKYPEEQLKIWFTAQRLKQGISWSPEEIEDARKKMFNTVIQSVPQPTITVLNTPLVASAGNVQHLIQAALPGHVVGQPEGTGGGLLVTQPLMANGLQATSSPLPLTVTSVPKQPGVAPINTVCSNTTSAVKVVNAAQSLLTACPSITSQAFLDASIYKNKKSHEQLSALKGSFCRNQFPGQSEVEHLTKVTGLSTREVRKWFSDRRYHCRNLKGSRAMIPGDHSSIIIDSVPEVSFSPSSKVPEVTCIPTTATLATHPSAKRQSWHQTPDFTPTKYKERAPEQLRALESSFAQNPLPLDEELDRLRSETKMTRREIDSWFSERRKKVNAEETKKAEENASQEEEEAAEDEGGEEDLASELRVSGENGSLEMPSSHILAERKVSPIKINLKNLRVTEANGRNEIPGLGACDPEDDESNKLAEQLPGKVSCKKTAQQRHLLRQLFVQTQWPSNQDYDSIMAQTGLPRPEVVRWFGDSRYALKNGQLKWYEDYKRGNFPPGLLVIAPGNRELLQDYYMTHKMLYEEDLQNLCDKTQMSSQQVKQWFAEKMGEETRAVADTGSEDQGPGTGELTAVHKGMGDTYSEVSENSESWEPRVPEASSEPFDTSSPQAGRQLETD
Text: as §1, §2, §3

binding result [1]: no binding | binding result [2]: no binding
B1: GST alone (pGEX-5X-1) (other, UniProt P08515 1-218, looked up)
chain: MSPILGYWKIKGLVQPTRLLLEYLEEKYEEHLYERDEGDKWRNKKFELGLEFPNLPYYIDGDVKLTQSMAIIRYIADKHNMLGGCPKERAEISMLEGAVLDIRYGVSRIAYSKDFETLKVDFLSKLPEMLKMFEDRLCHKTYLNGDHVTHPDFMLYDALDVVLYMDPMCLDAFPKLVCFKKRIEAIPQIDKYLKSSKYIAWPLQGWQATFGGGDHPPK
notes: Control, expressed in E. coli and immobilized on glutathione-Sepharose beads

Reference: patent US20070014790A1 (JAPAN SCIENCE AND TECHOLOGY AGENCY, published 2007)
